Assays:
[1] = molecular target: GppNHp-loaded KRAS4b (amino acids 1-169) G12C/C118S protein (Homo sapiens, UniProt P01116, C118S/G12C); assay: Covalent cysteine 12 modification by MALDI-TOF MS, GppNHp-loaded KRAS G12C; type: biochemical; details: 15 minutes reaction time
[2] = molecular target: GDP-loaded KRAS4b (amino acids 1-169) G12C/C118S protein (Homo sapiens, UniProt P01116, C118S/G12C); assay: Covalent cysteine 12 modification by MALDI-TOF MS, GDP-loaded KRAS G12C; type: biochemical; details: 15 minutes reaction time
[3] = molecular target: T1, GTP-loaded KRAS4b (amino acids 1-169) G12C/C118S protein (Homo sapiens, UniProt P01116, C118S/G12C); assay: Covalent cysteine 12 modification by MALDI-TOF MS, GTP-loaded KRAS G12C; type: biochemical; details: 15 minutes reaction time, compound 95 or later using 1 μM proteins
T1 construct: KRAS4b (amino acids 1-169) G12C/C118S protein; made in house

[4] = molecular target: Avi-KRAS G12C (1-169) GppNHp/RAF1 RBD-3xFLAG (52-151) (Homo sapiens, UniProt P01116, G12C); assay: biochemical; details: Raf1-GppNHp-KRAS G12C disruption, Raf1 RBD-KRAS G12C-GppNHp disruption assay IC50
[5] = compound 95 or later using 1 μM proteins
[6] = compounds 94 or before using 5 μM proteins

Row | SMILES | GppNHp-KRAS G12C percent of modification [1, 5] | GDP-KRAS G12C percent of modification [2, 5] | GTP-KRAS G12C percent of modification [3] | IC50 [4] [nM] | GppNHp-KRAS G12C percent of modification [1, 6] | GDP-KRAS G12C percent of modification [2, 6]
1 | C=CC(=O)N1CC[C@H](N(C)c2nc(OC[C@@]34CCCN3C[C@H](F)C4)nc3c(F)c(-c4ccc(F)c5sc(N)c(C#N)c45)c(C(F)(F)F)cc23)[C@@H]1C (single isomer, unassigned) [Compound 473] | C (10%≤percent of modification <50%) | C (10%≤percent of modification <50%) | D (percent of modification <10%) |  |  | 
2 | C=CC(=O)N1CCC(N(C)c2nc(OC[C@@H]3CC4(CC4)CN3C)nc3c(F)c(-c4ccc(F)c5sc(N)c(C#N)c45)ccc23)[C@H]1COC (some centres unmarked) [Compound 433] | A (percent of modification ≥70%) | A (percent of modification ≥70%) | A (percent of modification ≥70%) |  |  | 
3 | C=CC(=O)N1CCC(N(C)c2ncnc3c(F)c(-c4ccc(F)c5sc(N)c(C#N)c45)ccc23)[C@H]1C (some centres unmarked) [Compound 462] | D (percent of modification <10%) | C (10%≤percent of modification <50%) | D (percent of modification <10%) |  |  | 
4 | C=CC(=O)N1CC[C@@H](N(C)c2nc(OC[C@@]34CCCN3C[C@H](F)C4)nc3c(F)c(-c4ccc(F)c5sc(N)c(C#N)c45)c(C(F)(F)F)cc23)[C@H]1C (single isomer, unassigned) [Compound 434] | A (percent of modification ≥70%) | A (percent of modification ≥70%) | A (percent of modification ≥70%) |  |  | 
5 | C=CC(=O)N1CC[C@@H](N(C)c2nc(OC[C@@]34CCCN3C[C@H](F)C4)nc3cc(-c4ccc(F)c5sc(N)c(C#N)c45)c(F)cc23)[C@H]1C [Compound 390, 4-(4-((1-acryloyl-2-methylpyrrolidin-3-yl)(methyl)amino)-6-fluoro-2-(((2R,7aS)-2-fluorotetrahydro-1H-pyrrolizin-7a(5H)-yl)methoxy)quinazolin-7-yl)-2-amino-7-fluorobenzo[b]thiophene-3-carbonitrile] | A (percent of modification ≥70%) | A (percent of modification ≥70%) | A (percent of modification ≥70%) |  |  | 
6 | C=CC(=O)N1CC[C@@H](N(C)c2nc(OC[C@@]34CCCN3C[C@H](F)C4)nc3c(F)c(-c4ccc(F)c5sc(N)c(C#N)c45)c(C(F)(F)F)cc23)[C@H]1C [Compound 381, 4-(4-(((2R,3R)-1-acryloyl-2-methylpyrrolidin-3-yl)(methyl)amino)-8-fluoro-2-(((2R,7aS)-2-fluorotetrahydro-1H-pyrrolizin-7a(5H)-yl)methoxy)-6-(trifluoromethyl)quinazolin-7-yl)-2-amino-7-fluorobenzo[b]thiophene-3-carbonitrile] | A (percent of modification ≥70%) |  | B (50≤percent of modification <70%) |  |  | 
7 | C=CC(=O)N1CCC(N(C)c2nc(OC[C@@H]3CCCN3C)nc3cc(-c4ccc(F)c5sc(N)c(C#N)c45)c(F)cc23)[C@H]1C (some centres unmarked) [Compound 417] | A (percent of modification ≥70%) | A (percent of modification ≥70%) | A (percent of modification ≥70%) |  |  | 
8 | C=CC(=O)N1CCC(N(C)c2nc(OC)nc3c(F)c(-c4ccc(F)c5sc(N)c(C#N)c45)ccc23)[C@H]1C (some centres unmarked) [Compound 461] | D (percent of modification <10%) | C (10%≤percent of modification <50%) | D (percent of modification <10%) |  |  | 
9 | C=CC(=O)N1CCC(N(C)c2nc(OC[C@@H]3CCCN3C)nc3c(F)c(-c4ccc(F)c5sc(N)c(C#N)c45)ccc23)[C@H]1C (some centres unmarked) [Compound 420] | A (percent of modification ≥70%) | A (percent of modification ≥70%) | A (percent of modification ≥70%) |  |  | 
10 | C=CC(=O)N1CCC(N(C)c2nc(OCCO)nc3c(F)c(-c4ccc(F)c5sc(N)c(C#N)c45)ccc23)[C@H]1C (some centres unmarked) [Compound 468] | D (percent of modification <10%) | C (10%≤percent of modification <50%) | D (percent of modification <10%) |  |  | 
11 | C=CC(=O)N1CC[C@H](N(C)c2nc(OC[C@@]34CCCN3C[C@H](F)C4)nc3c(F)c(-c4ccc(F)c5sc(N)c(C#N)c45)c(C(F)(F)F)cc23)[C@@H]1C (single isomer, unassigned) [Compound 472] | B (50≤percent of modification <70%) | A (percent of modification ≥70%) | C (10%≤percent of modification <50%) |  |  | 
12 | Nc1nc2c(-c3c(C(F)(F)F)cc4c(NC5CN(C(=O)C6CN6)C5)nc(OCC56CCCN5CCC6)nc4c3F)ccc(F)c2s1 (centres unmarked) [Compound 243, (3-((7-(2-amino-7-fluorobenzo[d]thiazol-4-yl)-8-fluoro-2-((tetrahydro-1H-pyrrolizin-7a(5H)-yl)methoxy)-6-(trifluoromethyl)quinazolin-4-yl)amino)azetidin-1-yl)(aziridin-2-yl)methanone] | D (percent of modification <10%) | D (percent of modification <10%) |  | 500 to 5000 |  | 

Further lines, results first:

Row | GppNHp-KRAS G12C percent of modification [1, 5] | GDP-KRAS G12C percent of modification [2, 5] | GTP-KRAS G12C percent of modification [3] | IC50 [4] [nM] | GppNHp-KRAS G12C percent of modification [1, 6] | GDP-KRAS G12C percent of modification [2, 6] | SMILES
13 | D (percent of modification <10%) | A (percent of modification ≥70%) | D (percent of modification <10%) |  |  |  | C=CC(=O)N1CCC(N(C)c2nc(OC[C@@H]3CC4(CC4)CN3C)nc3c(F)c(-c4ccc(F)c5sc(N)c(C#N)c45)c(Cl)cc23)[C@H]1C (some centres unmarked) [Compound 448]
14 | B (50≤percent of modification <70%) | A (percent of modification ≥70%) | C (10%≤percent of modification <50%) |  |  |  | C=CC(=O)N1CCC(N(C)c2nc(OC[C@@H]3CCCN3CC)nc3c(F)c(-c4ccc(F)c5sc(N)c(C#N)c45)c(Cl)cc23)[C@H]1C (some centres unmarked) [Compound 464]
15 | A (percent of modification ≥70%) | A (percent of modification ≥70%) | A (percent of modification ≥70%) |  |  |  | C=CC(=O)N1CCC(N(C)c2nc(OC[C@@H]3CCCN3C)nc3c(F)c(-c4ccc(F)c5sc(N)c(C#N)c45)c(Cl)cc23)[C@H]1COC (some centres unmarked) [Compound 416]
16 | B (50≤percent of modification <70%) | A (percent of modification ≥70%) | C (10%≤percent of modification <50%) |  |  |  | C=CC(=O)N1CCC(N(C)c2nc(OC[C@@H]3CCCN3C)nc3c(F)c(-c4ccc(F)c5sc(N)c(C#N)c45)c(Cl)cc23)[C@H]1C (some centres unmarked) [Compound 419]
17 | D (percent of modification <10%) | B (50≤percent of modification <70%) |  | 5000 to 20000 |  |  | C=C(F)C(=O)N1CCN(c2nc(OC[C@@]34CCCN3C[C@H](F)C4)nc3c(F)c(-c4ccc(F)c5sc(N)nc45)c(C(F)(F)F)cc23)C[C@H]1C [Compound 208]
18 | C (10%≤percent of modification <50%) | A (percent of modification ≥70%) |  | 500 to 5000 |  |  | C=CC(=O)N1CC[C@@H](N(C)c2nc(OC[C@@H]3CC(F)(F)CN3C)nc3c(F)c(-c4ccc(F)c5sc(N)nc45)c(C(F)(F)F)cc23)C1 (atropisomer, axis not shown) [Compound 228]
19 | D (percent of modification <10%) | B (50≤percent of modification <70%) |  | 500 to 5000 |  |  | CC#CC(=O)N1CCN(c2nc(OCC34CCCN3CCC4)nc3c(F)c(-c4ccc(F)c5sc(N)nc45)c(C(F)(F)F)cc23)CC1 [Compound 134]
20 | B (50≤percent of modification <70%) | A (percent of modification ≥70%) |  | < 500 |  |  | C=CC(=O)N1CC(N(C)c2nc(OC[C@@]34CCCN3C[C@H](F)C4)nc3c(F)c(-c4ccc(F)c5sc(N)nc45)c(C(F)(F)F)cc23)C1 [Compound 223]
21 | C (10%≤percent of modification <50%) | A (percent of modification ≥70%) |  | < 500 |  |  | C=CC(=O)N1CCN(c2nc(OC[C@@]34CCCN3C[C@H](F)C4)nc3c(F)c(-c4ccc(F)c5sc(N)nc45)c(C(F)(F)F)cc23)C[C@H]1C [Compound 207]
22 |  |  |  | 500 to 5000 | C (10%≤percent of modification <50%) | A (percent of modification ≥70%) | C=CC(=O)N1CCN(c2nc(OC[C@@H]3CCCN3C)nc3c(F)c(-c4ccc(F)c5sc(N)nc45)c(Cl)cc23)[C@@H](C)C1 [Compound 39]
23 | D (percent of modification <10%) | B (50≤percent of modification <70%) |  | 500 to 5000 |  |  | C=C(F)C(=O)N1C[C@H](C)N(c2nc(OC[C@]34CCCN3C[C@H](F)C4)nc3c(F)c(-c4ccc(F)c5sc(N)nc45)c(C(F)(F)F)cc23)C[C@H]1C [Compound 205]
24 |  |  |  | 500 to 5000 | C (10%≤percent of modification <50%) | A (percent of modification ≥70%) | C=CC(=O)N1CCN(c2nc(OC[C@@H]3C[C@@H](F)CN3C)nc3c(F)c(-c4ccc(F)c5sc(N)nc45)c(Cl)cc23)CC1 [Compound 85]

Source: patent US12528818B2, “Compositions and methods for inhibition of RAS” (Leidos Biomedical Research, Inc., priority 2021, dated 2026)
